Measured values: patent US6936585B2, “Corticotropin releasing factor 2 receptor agonists” (priority 2002, dated 2005)

How the values were obtained:
[1] = target: T1, CRF2R (Homo sapiens, UniProt Q13324); assay: CRF2R agonist activation (EC50 / Emax), called comparative CRF binding; assay type: cell-based; conditions: for Emax: read-out: CRF2R Emax
T1 sequence (Q13324 1-411): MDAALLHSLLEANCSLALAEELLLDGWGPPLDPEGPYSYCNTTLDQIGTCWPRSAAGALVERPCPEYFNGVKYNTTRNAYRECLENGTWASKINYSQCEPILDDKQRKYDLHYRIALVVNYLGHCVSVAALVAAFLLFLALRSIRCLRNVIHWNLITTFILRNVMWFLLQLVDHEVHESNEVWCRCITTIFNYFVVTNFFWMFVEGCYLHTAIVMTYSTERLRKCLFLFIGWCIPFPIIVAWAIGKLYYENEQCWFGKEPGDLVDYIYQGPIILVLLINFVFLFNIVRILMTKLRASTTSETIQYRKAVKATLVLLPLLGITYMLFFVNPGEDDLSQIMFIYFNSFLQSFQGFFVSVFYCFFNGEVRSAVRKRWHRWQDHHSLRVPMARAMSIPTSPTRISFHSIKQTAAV
Procedure, shortened: (§1)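 CRFR-expressing cells + peptide vs vehicle; read-out cAMP (lysate assay) or CRE-linked reporter expression (luciferase, CAT, fluorescent protein, alkaline phosphatase, etc.). Signal compared against vehicle-treated cells.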

[2] = target: T2, CRF1R (Homo sapiens, UniProt P34998); assay: CRF1R agonist activation (EC50 / Emax), called comparative CRF binding; assay type: cell-based; conditions: for pEC50: CRF1R EC50; for Emax: read-out: CRF1R Emax
T2 sequence (P34998 24-415): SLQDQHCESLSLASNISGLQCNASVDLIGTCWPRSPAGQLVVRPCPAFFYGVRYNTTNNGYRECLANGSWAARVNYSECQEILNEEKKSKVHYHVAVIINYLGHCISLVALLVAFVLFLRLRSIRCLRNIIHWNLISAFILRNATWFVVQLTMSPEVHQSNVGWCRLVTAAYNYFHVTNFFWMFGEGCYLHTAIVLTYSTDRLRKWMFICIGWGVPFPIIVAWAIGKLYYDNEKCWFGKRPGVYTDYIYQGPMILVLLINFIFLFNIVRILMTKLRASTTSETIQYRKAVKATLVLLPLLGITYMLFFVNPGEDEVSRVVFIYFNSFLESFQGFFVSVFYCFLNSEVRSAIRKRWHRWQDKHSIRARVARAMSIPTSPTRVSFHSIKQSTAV
Procedure, shortened: as §1

Row | Structure (SMILES) | pEC50 [1] | Emax [1] [%] | pEC50 [2] | Emax [2] [%]
1 | CC[C@H](C)[C@H](NC(=O)[C@@H](NC(=O)[C@H](CC(=O)O)NC(=O)[C@H](CC(C)C)NC(=O)[C@H](CC(C)C)NC(=O)[C@H](CC(C)C)NC(=O)[C@H](C)NC(=O)[C@H](CC(N)=O)NC(=O)[C@H](CC(N)=O)NC(=O)[C@H](C)NC(=O)[C@H](C)NC(=O)[C@H](CCC(N)=O)NC(=O)[C@H](CCC(N)=O)NC(=O)[C@H](CCCCN)NC(=O)[C@H](CCC(=O)O)NC(=O)[C@H](CCCCN)NC(=O)[C@H](CCC(=O)O)NC(=O)[C@H](CCC(N)=O)NC(=O)[C@H](CCCCN)NC(=O)[C@H](CCC(=O)O)NC(=O)[C@@H](NC(=O)[C@H](CCC(=O)O)NC(=O)[C@@H](NC(=O)[C@H](CCSC)NC(=O)[C@H](CCCCN)NC(=O)[C@H](CCCNC(=N)N)NC(=O)[C@H](CC(C)C)NC(=O)[C@H](CC(C)C)NC(=O)[C@H](Cc1ccc(O)cc1)NC(=O)[C@H](Cc1ccc(O)cc1)NC(=O)[C@@H]1CCCN1C(=O)[C@H](CC(C)C)NC(=O)[C@H](CC(=O)O)NC(=O)[C@@H](NC(=O)[C@H](CO)NC(=O)[C@@H](NC(=O)[C@@H]1CCCN1C(=O)[C@@H]1CCCN1C(=O)CNC(=O)[C@@H]1CCC(=O)N1)[C@@H](C)CC)[C@@H](C)CC)[C@@H](C)CC)[C@@H](C)CC)[C@@H](C)O)C(N)=O [compound 226] | 8.12 | 100 | 6.50 | 95
2 | CC[C@H](C)[C@H](NC(=O)[C@@H](NC(=O)[C@H](CC(=O)O)NC(=O)[C@H](CC(C)C)NC(=O)[C@H](CC(C)C)NC(=O)[C@H](CC(C)C)NC(=O)[C@H](CCCNC(=N)N)NC(=O)[C@H](CC(N)=O)NC(=O)[C@H](CC(N)=O)NC(=O)[C@H](C)NC(=O)[C@H](C)NC(=O)[C@H](CCC(N)=O)NC(=O)[C@H](CCC(N)=O)NC(=O)[C@H](CCCCN)NC(=O)[C@H](CCC(=O)O)NC(=O)[C@H](CCCCN)NC(=O)[C@H](CCC(=O)O)NC(=O)[C@H](CCC(N)=O)NC(=O)[C@H](CCCCN)NC(=O)[C@H](CCC(=O)O)NC(=O)[C@@H](NC(=O)[C@H](CCC(=O)O)NC(=O)[C@@H](NC(=O)[C@H](CCSC)NC(=O)[C@H](CCCCN)NC(=O)[C@H](CCCNC(=N)N)NC(=O)[C@H](CC(C)C)NC(=O)[C@H](CC(C)C)NC(=O)[C@H](C)NC(=O)[C@H](CCC(N)=O)NC(=O)[C@@H]1CCCN1C(=O)[C@H](CC(C)C)NC(=O)[C@H](CC(=O)O)NC(=O)[C@@H](NC(=O)[C@H](CO)NC(=O)[C@@H](NC(=O)[C@@H]1CCCN1C(=O)[C@@H]1CCCN1C(=O)CNC(=O)[C@@H]1CCC(=O)N1)[C@@H](C)CC)[C@@H](C)CC)[C@@H](C)CC)[C@@H](C)CC)[C@@H](C)O)C(N)=O [compound 302] | 7.44 | 100 | 6.44 | 100
3 | CC[C@H](C)[C@H](NC(=O)[C@H](CCCNC(=N)N)NC(=O)[C@H](C)NC(=O)[C@H](CC(C)C)NC(=O)[C@H](CC(C)C)NC(=O)[C@H](CCCNC(=N)N)NC(=O)[C@H](C)NC(=O)[C@H](CC(N)=O)NC(=O)[C@H](CC(N)=O)NC(=O)[C@H](C)NC(=O)[C@H](C)NC(=O)[C@H](CCC(N)=O)NC(=O)[C@H](CCC(N)=O)NC(=O)[C@H](CCCCN)NC(=O)[C@H](CCC(=O)O)NC(=O)[C@H](CCCCN)NC(=O)[C@H](CCC(=O)O)NC(=O)[C@H](CCC(N)=O)NC(=O)[C@H](CCCCN)NC(=O)[C@H](CCC(=O)O)NC(=O)[C@@H](NC(=O)[C@H](CCC(=O)O)NC(=O)[C@@H](NC(=O)[C@@H](NC(=O)[C@H](CCCCN)NC(=O)[C@H](CCCNC(=N)N)NC(=O)[C@H](CC(C)C)NC(=O)[C@H](CC(C)C)NC(=O)[C@H](Cc1ccc(O)cc1)NC(=O)[C@H](Cc1ccc(O)cc1)NC(=O)[C@@H]1CCCN1C(=O)[C@@H](NC(=O)[C@H](CC(=O)O)NC(=O)[C@@H](NC(=O)[C@H](CO)NC(=O)[C@@H](NC(=O)[C@@H]1CCCN1C(=O)[C@@H]1CCCN1C(=O)CNC(=O)[C@@H]1CCC(=O)N1)[C@@H](C)CC)[C@@H](C)CC)C(C)C)C(C)C)[C@@H](C)CC)[C@@H](C)CC)C(N)=O [compound 378] | 7.83 | 100 | ≤ 6.00 | 36

pEC50: −log10 of the molar value.
